# Source: PMC3460729, “Innate immune properties of selected human neuropeptides against Moraxella catarrhalis and nontypeable Haemophilus influenzae” (BMC Immunology, 2012)
# Tested on: human PMNs stimulated with H. influenzae ATCC 49247
# Test: H. influenzae-stimulated ROS generation by PMNs, luminol-dependent chemiluminescence
# Format: cell-based
# Conditions: 10^−8 M NP, nonopsonized NTHi; 4 donors
# Method: Polymorphonuclear leukocytes (PMNs) from healthy young adult volunteers were isolated from venous blood samples anticoagulated with Lithium-heparin (7.5 ml) by ficoll (Aqua-Med, Poland) density gradient centrifugation (2000 rpm/30 min), followed by hypotonic lysis of erythrocytes with a lysing buffer (0.83% NH4Cl, 0.1% KHCO3, EDTA, pH 7.4). After two washes (1400 rpm/10 min) in PBS, PMNs were resuspended to the final concentration of […] cells/ml in phagocytic buffer: HBSS with Ca^++ and Mg^++ supplemented with 1% HiFBS. The purity of granulocyte suspensions was checked using 15 μg/ml of acridine orange. […] Isolated PMNs were kept for 30 min at 37°C and 5% CO2 until used.
# Reactive oxygen species (ROS) formation by PMNs was measured using luminol-dependent chemiluminescence assay (CL) in white flat-bottom 96-well microplates (NUNC, Denmark). The reaction mixture of total volume 200 μl in each well contained: 100 μl of PMN suspension in HBSS–Ca^++Mg^++ (10^5 cells/well), 40 μl of luminol (50 μM/well), 40 μl of fMLP (0.2 μM/well), 20 μl of particular NP (in the range 10^−12–10^−8 M/well). […] The maximal value of CL response curve was expressed as peak height (PHCL) for fMLP stimulant. In other cases the area under chemiluminescence curve (AUCCL) was calculated. […] Results were expressed as mean ± SD.
smiles,measurement,value
"CSCC[C@H](NC(=O)[C@H](CC(C)C)NC(=O)CNC(=O)[C@H](Cc1ccccc1)NC(=O)[C@H](Cc1ccccc1)NC(=O)[C@H](CCC(N)=O)NC(=O)[C@H](CCC(N)=O)NC(=O)[C@@H]1CCCN1C(=O)[C@H](CCCCN)NC(=O)[C@@H]1CCCN1C(=O)[C@@H](N)CCCNC(=N)N)C(N)=O [SP, substance P]",mean relative CL increase,8.2 ± 5.4%
